Assay results reported in US20160158382A1, “AGENT FOR THE TREATMENT AND PREVENTION OF SLEEP DISORDERS” (published 2016).

Tested on: mature outbred male white rats
Experiment: Sedative-hypnotic activity: EEG analysis of sleep-wake cycle stages in freely moving rats
Conditions: for Reduction in the number of wakefulness episodes compared to control / Number of episodes, fast-wave sleep / Number of episodes, wakefulness / Number of episodes, slow-wave sleep: 5-hour registration; for Theta-rhythm synchronization and modulation in the electrograms of sensorimotor cortex and dorsal hippocampus in the fast-wave (paradoxical) sleep phase: FIG. 2; for Number of episodes, fast-wave sleep / Number of episodes, wakefulness / Number of episodes, slow-wave sleep / Ratio between the duration of fast-wave sleep and the duration of total recording period / Duration, fast-wave sleep / Ratio between the duration of wakefulness and the duration of total recording period / Ratio between the duration of slow-wave sleep and the duration of total recording period / Duration, wakefulness / Duration, slow-wave sleep / Latency, slow-wave sleep / Latency, fast-wave sleep: intraperitoneal; for Number of episodes, fast-wave sleep / Number of episodes, wakefulness / Number of episodes, slow-wave sleep / Ratio between the duration of fast-wave sleep and the duration of total recording period / Duration, fast-wave sleep / Ratio between the duration of wakefulness and the duration of total recording period / Ratio between the duration of slow-wave sleep and the duration of total recording period / Duration, wakefulness / Duration, slow-wave sleep: N = 7, agent 2 mg/kg; for Number of episodes, fast-wave sleep: control 14.7 ± 1.59; for Number of episodes, wakefulness: control 38.7 ± 1.46; for Number of episodes, slow-wave sleep: control 39.3 ± 1.46; for Ratio between the duration of fast-wave sleep and the duration of total recording period: control 4.9 ± 0.78; for Duration, fast-wave sleep: control 16.6 ± 2.78; for Ratio between the duration of wakefulness and the duration of total recording period: control 33.2 ± 2.73; for Ratio between the duration of slow-wave sleep and the duration of total recording period: control 61.6 ± 2.49; for Duration, wakefulness: control 111.5 ± 9.58; for Duration, slow-wave sleep: control 206.3 ± 7.47; for Latency, slow-wave sleep / Latency, fast-wave sleep: n = 7, agent 2 mg/kg; for Latency, slow-wave sleep: control 17.0 ± 2.4, time from start of EEG registration to first episode; for Latency, fast-wave sleep: control 69.0 ± 4.44, time from start of EEG registration to first episode
[1] = agent 2 mg/kg, glycine 10 mg/kg, Donormyl 15 mg/kg
[2] = 5-hr. registration, agent 2 mg/kg, glycine 10 mg/kg, Donormyl 15 mg/kg
[3] = glycine 10 mg/kg, Donormyl 15 mg/kg
[4] = glycine 10 mg/kg, Donormyl 15 mg/kg, 5-hr. registration

SMILES | Reduction in the number of wakefulness episodes compared to control [1] [%] | Effect on the percentage of fast-wave sleep compared to control (in words) [2] | Effect on the percentage of wakefulness compared to control (in words) [2] | Theta-rhythm synchronization and modulation in the electrograms of sensorimotor cortex and dorsal hippocampus in the fast-wave (paradoxical) sleep phase | Effect on fast-wave sleep onset latency compared to control (in words) [3] | Effect on slow-wave sleep onset latency compared to control (in words) [3] | Effect on the fast-wave sleep duration compared to control (in words) [3] | Effect on the number of fast-wave sleep episodes compared to control (in words) [4] | Number of episodes, fast-wave sleep [3] | Number of episodes, wakefulness [3] | Number of episodes, slow-wave sleep [3] | Ratio between the duration of fast-wave sleep and the duration of total recording period [3] [%] | Duration, fast-wave sleep [3] [min] | Ratio between the duration of wakefulness and the duration of total recording period [3] [%] | Ratio between the duration of slow-wave sleep and the duration of total recording period [3] [%] | Duration, wakefulness [3] [min] | Duration, slow-wave sleep [3] [min] | Latency, slow-wave sleep [3] [min] | Latency, fast-wave sleep [3] [min] | further results
NCC(=O)O | 26 | trend towards an increase | statistically significant reduction | did not enhance | did not show a statistically significant reduction | did not show a statistically significant reduction | trend towards an increase | had no effect | 15.2 ± 2.55 | 29 · | 32.3 ± 2.50 | 6.1 ± 0.94 | 19.8 ± 3.11 | 28.7 ± 1.73 | 65.2 ± 1.52 | 92.5 ± 5.54 | 210.4 ± 5.73 | 14.1 ± 2.39 | 65.3 ± 15.63 | Effect on the duration of wakefulness compared to control (in words) (glycine 10 mg/kg): decreased; Effect on the number of slow-wave sleep episodes compared to control (in words) (glycine 10 mg/kg): trend towards a reduction
CN(C)CCOC(C)(c1ccccc1)c1ccccn1 (centres unmarked) | 22 | trend towards an increase | statistically significant reduction | did not enhance | trend toward some increase | did not change | trend towards an increase | had no effect | 12.0 ± 1.98 | 30.2 · | 31.7 · | 6.3 ± 1.16 | 20.1 ± 3.63 | 26.1 ± 4.39 | 67.5 ± 3.62 | 85.0 ± 11.87 | 216.6 ± 6.83 | 19.3 ± 7.41 | 96.3 ± 17.55 | Reduction of the duration of wakefulness compared to control (5-hr. registration, agent 2 mg/kg, Donormyl 15 mg/kg): 24%; Effect on the duration of slow-wave sleep compared to control (in words) (Donormyl 15 mg/kg): trend towards an increase; Effect on the percentage of slow-wave sleep compared to control (in words) (Donormyl 15 mg/kg): trend towards an increase; Reduction in the slow-wave sleep episodes compared to control (Donormyl 15 mg/kg, 5-hr. registration): 19%
